Laboratory results as given in patent publication US20150313825A1, “METHODS AND COMPOSITIONS FOR LOCALLY INCREASING BODY FAT” (TOPOKINE THERAPEUTICS, INC., priority 2012, published 2015).

Experiment: Plasma pharmacokinetics after 42 days of percutaneous treatment, LC/MS-MS (Example 4)
Details: fold lower than for oral (systemic) therapy
Description: A prospective controlled trial was performed in 4 Gottingen minipigs (2 males, 2 females). Hair on the back was clipped. […] An equivalent Vehicle Treatment Area was marked on the left side of the animal, such that the two treatment areas were anatomically equivalent. […] After 42 days of treatment, plasma pharmacokinetics (PK) was assessed on all animals by Liquid Chromatography/Tandem Mass Spectrometry. Necropsy was done and samples of skin, subcutaneous fat, and muscle were collected en bloc from each treatment area in a controlled fashion. […] Table 5 presents the thicknesses of subcutaneous fat on each of six treated and control (vehicle) locations, by animal. […] Table 6 compares plasma PK following percutaneous administration (present study) with plasma PK following oral administration in humans.

CN(CCOc1ccc(CC2SC(=O)NC2=O)cc1)c1ccccn1 (stereo not shown) [Rosiglitazone]
Percutaneous:Oral Ratio of plasma exposure (AUC0-24): ~1300
